Experimental findings from ChEMBL document CHEMBL4673352, “Discovery of AZD4573, a Potent and Selective Inhibitor of CDK9 That Enables Short Duration of Target Engagement for the Treatment of Hematological Malignancies” (J Med Chem, 2020) are described below.

Chains of the proteins cited; added tags and fusions are not shown.
UniProt P50750, whole entry: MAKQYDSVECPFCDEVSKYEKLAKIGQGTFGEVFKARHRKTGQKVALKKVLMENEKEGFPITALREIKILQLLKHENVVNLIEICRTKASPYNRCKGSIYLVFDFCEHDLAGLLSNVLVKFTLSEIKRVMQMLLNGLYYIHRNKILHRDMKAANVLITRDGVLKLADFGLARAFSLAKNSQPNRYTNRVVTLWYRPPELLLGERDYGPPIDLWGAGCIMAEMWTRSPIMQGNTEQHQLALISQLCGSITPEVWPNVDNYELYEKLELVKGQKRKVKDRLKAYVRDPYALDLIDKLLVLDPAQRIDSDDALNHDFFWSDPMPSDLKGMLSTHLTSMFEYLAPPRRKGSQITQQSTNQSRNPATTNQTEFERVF

The target of assay [1] is T1, Cyclin-dependent kinase 9 (Homo sapiens, UniProt P50750). Nature of the assay: Inhibition of CDK9 in human MV4-11 cells assessed as induction of caspase-3/7 activation measured after 6 hrs followed by Caspase-glo reagent based assay. The class given is cell-based.
The target in a further assay is CDK9/cyclin T1 (Homo sapiens, UniProt P50750). The experiment in a line: Inhibition of recombinant full length human N-terminal GST-fused CDK9 (1 to 372 residues)/His-tagged CyclinT1 (1 to 726 residues) expressed in baculovirus infected insect cells using FITC-X-GSRTPMY-NH2 as substrate preincubated for 10 mins followed by MgCl2 addition and measured after 90 mins in presence of 5 mM ATP by mobility shift assay.

The target in assay [2] is T1, Cyclin-dependent kinase 9. Nature of the assay: Inhibition of CDK9 in human MCF7 cells assessed as reduction in RNA Polymerase 2 CTD phosphorylation at Ser2 residues measured after 6 hrs by immunofluorescence assay. The class given is cell-based.

Broadly, the EC50 is the concentration that produces a half-maximal response. Broadly, the IC50 is the concentration that inhibits the measured activity by half.

Consider `COc1cc(F)ccc1-c1ccnc(NC(=O)[C@H]2CCC[C@@H](NC(C)=O)C2)c1`, for which the EC50 in assay [1] amounted to 220 nM. Also, the figures for the IC50 (on CDK9/cyclin T1; in assay [2]) were 29 nM and 130 nM, respectively.
